This assay relates to muscarinic M1 receptors. Kind of assay: Isolated organ bioassay, test for antagonist activity, field-stimulated rabbit vas deferens. Format: biochemical. Particulars: mean, n=2. The method, then: Prostatic segments of rabbit vas deferens were suspended in 20-ml organ baths containing an oxygenated (95% O2 and 5% CO2) and pre-warmed (30° C.) physiological salt solution of the following composition (in mM): NaCl 118.0, KCl 4.7, MgSO4 0.6, CaCl2) 2.5, KH2PO4 1.2, NaHCO325 and glucose 11.0 (pH 7.4).
Yohimbine (1 μM) and naloxone (1 μM) were also present throughout the experiments to block the α2-adrenergic and opioid receptors, respectively.
The tissues were connected to force transducers for isometric tension recordings. They were stretched to a resting tension of 1 g then allowed to equilibrate for 60 min during which time they were washed repeatedly and the tension readjusted. Thereafter, they were stimulated electrically with square wave pulses (submaximal intensity, 1 msec duration, 0.1 Hz) delivered by a constant current stimulator.
The tissues were exposed to a submaximal concentration of the reference agonist McN-A-343 (1 μM) to obtain a control response.
If it occurred, a recovery of the twitch contraction amplitude by the test compounds indicated an antagonist activity at the M1 receptors.
The parameter measured was the maximum change in the amplitude of the electrically-evoked contractions induced by the compounds.
The results are expressed as a percent of the control response to McN-A-343 (mean values).

Consider `CN1CCN(CC(=O)N2c3ccccc3C(=O)Nc3cccnc32)CC1` [pirenzepine, reference compound], for which the “Response to McN-A-343 (1.0E−06M) in the presence of the compound, percent of the control response” value by setting is: (compound 1.0E−07M) 4%; (compound 1.0E−08M) 72%; (compound 3.0E−08M) 43%.

(Values after US12208079B2, “Enantiomers of A2-73, analogues, and sigma agonist activity” (Anavex Life Sciences Corp., priority 2015, dated 2025).)
